The target in assay [1] is His-S-tag-importin β (UniProt Q14974). Nature of the assay: ELISA; solid phase assay: 100 nM importin β on Tpr adsorbed to microtiter wells, without or with 0.1, 0.2, 0.5 and 1 μM RanGMP-PNP or RanGDPβS. On the technique in general: ELISA stands for enzyme-linked immunosorbent assay.
Assay [2] addresses recombinant full-length mammalian Tpr (6xHis-Tpr) (not stated (mammalian)) (UniProt P12270). Nature of the assay: ELISA; solid phase binding assay: Maxisorp microtiter plates coated with 25 ng of Tpr or C-Tpr; increasing concentrations of the soluble protein; bound protein detected with primary antibodies and horseradish peroxidase-conjugated secondary antibodies (TMB); apparent Kd from B = Bmax x Y/(Kd + Y); CRM1, NES and RanGTP at equimolar concentrations.

For “RanGMP-PNP (from UniProt P62826 1-216) (natural protein; other documents disagree on this pair)”, in assay [1], the percent of importin β binding to Tpr left with a 10 fold molar excess of RanGMP-PNP was 42%.

In the case of “CRM1+NES+RanGTP (trimeric CRM1 export complex) (from UniProt O14980 1-1071; P62826 1-216) (complex; other documents disagree on this pair)”, the Kd in assay [2] came to 83 nM.

The record behind these values is paper PMC2770460.
